Reference: article PMC12474298 (Viruses, 2025)

How the values were obtained:
IMPα2 (mouse IMPα2ΔIBB) = IMPα2 (mouse IMPα2ΔIBB) (Mus musculus, UniProt P52293); experiment: Fluorescence polarization assay, FITC-NLS peptide vs importin α2ΔIBB
IMPα3 (human IMPα3ΔIBB) = target: T1, IMPα3 (human IMPα3ΔIBB) (Homo sapiens, UniProt O00629); experiment: Fluorescence polarization assay, FITC-NLS peptide vs importin α3ΔIBB
T1 sequence (O00629 64-521 limits assumed): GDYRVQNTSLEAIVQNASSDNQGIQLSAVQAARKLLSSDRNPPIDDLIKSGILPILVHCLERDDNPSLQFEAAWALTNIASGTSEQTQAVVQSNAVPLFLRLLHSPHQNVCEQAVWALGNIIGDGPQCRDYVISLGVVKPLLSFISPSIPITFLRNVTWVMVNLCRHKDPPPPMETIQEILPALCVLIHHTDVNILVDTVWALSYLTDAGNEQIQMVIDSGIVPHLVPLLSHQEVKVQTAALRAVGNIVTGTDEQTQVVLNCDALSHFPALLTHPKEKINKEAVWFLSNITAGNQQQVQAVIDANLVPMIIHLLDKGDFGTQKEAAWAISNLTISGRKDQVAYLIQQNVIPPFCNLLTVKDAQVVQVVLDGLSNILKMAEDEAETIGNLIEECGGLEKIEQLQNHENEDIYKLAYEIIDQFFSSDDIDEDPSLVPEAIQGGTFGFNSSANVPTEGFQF

IMPα1 (human IMPα1ΔIBB) = IMPα1 (human IMPα1ΔIBB) (Homo sapiens, UniProt P52292); experiment: Fluorescence polarization assay, FITC-NLS peptide vs importin α1ΔIBB

CC[C@H](C)[C@H](NC(=O)[C@H](CCCNC(=N)N)NC(=O)[C@H](CCCNC(=N)N)NC(=O)[C@H](C)NC(=O)[C@H](CCCCN)NC(=O)[C@H](CCCCN)NC(=O)[C@@H](NC(=O)[C@H](CCC(=O)O)NC(=O)CCCCCNC(=S)Nc1ccc2c(c1)C(=O)OC21c2ccc(O)cc2Oc2cc(O)ccc21)[C@@H](C)O)C(=O)N[C@@H](CC(C)C)C(=O)N[C@@H](CCC(=O)O)C(N)=O [R1495A]
Change in dissociation constant (KD) on mutation, IMPα2 (IMPα2 (mouse IMPα2ΔIBB)): significant increase in the dissociation constant (KD)
Change in dissociation constant (KD) on mutation, IMPα3 (IMPα3 (human IMPα3ΔIBB)): significant increase in the dissociation constant (KD)
Change in dissociation constant (KD) on mutation, IMPα1 (IMPα1 (human IMPα1ΔIBB)): significant increase in the dissociation constant (KD)
